From article PMC9706575 (Journal of Medicinal Chemistry, 2022)

Protein sequences, listed by entry. Tags and fused reporters are not part of them. Residues count along the entry.
UniProt P29317, 28-206 limits assumed: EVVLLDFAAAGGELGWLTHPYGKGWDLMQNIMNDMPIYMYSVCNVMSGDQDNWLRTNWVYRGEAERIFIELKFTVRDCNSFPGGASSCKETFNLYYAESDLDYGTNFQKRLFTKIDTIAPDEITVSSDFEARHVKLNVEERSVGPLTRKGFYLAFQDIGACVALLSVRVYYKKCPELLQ

Tests used:
EphA2-LBD [1] = molecular target: T1, EphA2-LBD (Homo sapiens, UniProt P29317); assay: Reverse ITC binding to EphA2-LBD; conditions: 25 mM Tris pH 7.5, 150 mM NaCl, 25 °C, 1% DMSO
T1 construct: made in house

EphA2-LBD [2] = molecular target: T1, EphA2-LBD; assay: DELFIA displacement assay; assay type: binding; conditions: monomeric agents; 10 nM EphA2 protein

Row | Kd (EphA2-LBD [1]) [nM] | IC50 (EphA2-LBD [2]) [nM] | Compound
1 | 54 |  | C[C@H](NC(=O)[C@H](CO)NC(=O)[C@H](Cc1ccc(O)cc1)NC(=O)CN1CCNCC1)C(=O)N[C@@H](Cc1ccc(-c2ccccc2)cc1)C(=O)N1CCC[C@H]1C(=O)N[C@@H](CC(=O)O)C(=O)N[C@@H](CO)C(=O)N[C@H](C(=O)N1CCC[C@H]1C(=O)N[C@@H](Cc1ccccc1)C(=O)N[C@@H](CCCNC(=N)N)C(=O)N1CCC[C@H]1C(N)=O)C1CCCCC1 [Compound 31, PiperazineAcAcid-YSA-Bip-PDS-Chg-PFRP-CONH2]
2 | 68 |  | C[C@H](NC(=O)[C@H](CO)NC(=O)[C@H](Cc1ccc(O)cc1)NC(=O)CN1CCNCC1)C(=O)N[C@@H](Cc1ccc(-c2ccccc2)cc1)C(=O)N1CCC[C@H]1C(=O)N[C@@H](CC(=O)O)C(=O)N[C@@H](CO)C(=O)N[C@H](C(=O)N1CCC[C@H]1C(=O)N[C@@H](Cc1ccc(Cl)cc1)C(=O)N[C@@H](CCCNC(=N)N)C(=O)N1CCC[C@H]1C(N)=O)C1CCCCC1 [Compound 32, PiperazAcAcid-YSA-(Bip)-PDS-Chg-P-(4Cl-Phe)-RP-CONH2]
3 | 39 |  | CC(C)C[C@H](NC(=O)[C@H](Cc1ccc(O)cc1)NC(=O)CN1CCNCC1)C(=O)N[C@@H](C)C(=O)N[C@@H](Cc1ccc(-c2ccccc2)cc1)C(=O)N1CCC[C@H]1C(=O)N[C@@H](CC(=O)O)C(=O)N[C@@H](CO)C(=O)N[C@H](C(=O)N1CCC[C@H]1C(=O)N[C@@H](Cc1ccccc1)C(=O)N[C@@H](CCCNC(=N)N)C(=O)N1CCC[C@H]1C(N)=O)C1CCCCC1 [Compound 33, PiperazAcAcid-Y-L-A-(Bip)-PDS-Chg-PFRP-CONH2]
4 | 74 |  | C[C@H](NC(=O)[C@H](CO)NC(=O)[C@H](Cc1ccc2ccccc2c1)NC(=O)CN1CCNCC1)C(=O)N[C@@H](Cc1ccc(-c2ccccc2)cc1)C(=O)N1CCC[C@H]1C(=O)N[C@@H](CC(=O)O)C(=O)N[C@@H](CO)C(=O)N[C@H](C(=O)N1CCC[C@H]1C(=O)N[C@@H](Cc1ccccc1)C(=O)N[C@@H](CCCNC(=N)N)C(=O)N1CCC[C@H]1C(N)=O)C1CCCCC1 [Compound 34, PiperazAcAcid-(2Nal)-SA-(Bip)-PDS-Chg-PFRP-CONH2]
5 |  | 30.8 | Cc1ccccc1-c1ccc(C[C@H](NC(=O)[C@H](C)NC(=O)[C@H](CC(C)C)NC(=O)[C@H](Cc2ccc3ccccc3c2)NC(=O)CN2CCNCC2)C(=O)N2CCC[C@H]2C(=O)N[C@@H](CC(=O)O)C(=O)N[C@@H](CO)C(=O)N[C@H](C(=O)N2CCC[C@H]2C(=O)N[C@@H](Cc2ccc(Cl)cc2)C(=O)N[C@@H](CCCNC(=N)N)C(=O)N2CCC[C@H]2C(N)=O)C2CCCCC2)cc1 [Compound 36, PiperazAcAcid-(2Nal)-L-A-(2Me-Bip)-PDS-Chg-P-(4Cl-Phe)-RP-CONH2]
6 | 49 | 16.5 | Cc1ccccc1-c1ccc(C[C@H](NC(=O)[C@H](C)NC(=O)[C@H](CC(C)C)NC(=O)[C@H](Cc2ccc(O)cc2)NC(=O)CN2CCNCC2)C(=O)N2CCC[C@H]2C(=O)N[C@@H](CC(=O)O)C(=O)N[C@@H](CO)C(=O)N[C@H](C(=O)N2CCC[C@H]2C(=O)N[C@@H](Cc2ccc(Cl)cc2)C(=O)N[C@@H](CCCNC(=N)N)C(=O)N2CCC[C@H]2C(N)=O)C2CCCCC2)cc1 [Compound 37, PiperazAcAcid-Y-L-A-(2Me-Bip)-PDS-Chg-P-(4Cl-Phe)-RP-CONH2]
